Test results as given in PubChem BioAssay AID1020 (Sanford-Burnham Center for Chemical Genomics, 2008).
Only a part is listed here, and it is no random draw. Some tests of the compounds listed are not included; inactive here does not mean inactive elsewhere. Active and inactive are the calls of the source. No stated cut-off is given here; in the data, active means inhibition above about 50%; inactive means the rest.

system: glucose-6-phosphate dehydrogenase [Leuconostoc mesenteroides]; assay: L. mesenteroides G6PDH inhibitors, counter-screen for G6PDH-coupled screening assays, biochemical, Leuconostoc mesenteroides enzyme (AID 1020); conditions: Purified L. mesenteroides G6PDH, diaphorase/resazurin coupled fluorescence, 45 min; at 5 µM; active compounds read high

SMILES	inhibition
COc1cccc(C(=O)NCC2(N3CCCCC3)CCCCC2)c1	inactive: 7.6%
O=C(OC1CN2CCC1CC2)C(CO)(c1ccccc1)c1ccccc1 (centres undefined)	inactive: 8.6%
CN(C)c1cccc(C(=O)NCC2(N(C)C)CCCCC2)c1	inactive: 4.7%
O=C(NCC1(N2CCCCC2)CCCCC1)c1cc([N+](=O)[O-])ccc1Cl	inactive: 3.3%
CC(C)N1C(=O)CC2(CCN(CCOC(=O)C(O)(c3ccccc3)c3ccccc3)CC2)C1=O	inactive: -0.9%
Cc1ccccc1C(=O)NCC1(N2CCCCC2)CCCCC1	inactive: 0.3%
CN(C)C1CCCC1OC(=O)C(O)(c1ccccc1)c1ccccc1 (centres undefined)	inactive: 19.8%
C=CCN1CCN(CCOC(=O)C(O)(c2ccccc2)c2ccccc2)CC1	inactive: 8.9%
CCN1CCCC(OC(=O)C2(O)c3ccccc3C=Cc3ccccc32)C1 (centres undefined)	inactive: 9.3%
